Earlier results in PMC8646516 (CPT: Pharmacometrics & Systems Pharmacology, 2021).

Conditions: cited from earlier work

lopinavir/ritonavir
Total exposure increase in patients with COVID-19 compared with non-COVID-19 patients: 2–5 fold
Unbound concentrations in COVID-19 compared to patients with HIV: unaltered
